From article PMC3944532, “Mode of Action of Diterpene and Characterization of Related Metabolites from the Soft Coral, Xenia elongata” (Marine Drugs, 2014)
Values belong to the compound of their own block, whether it stands above or below them.

Protein sequences, listed by entry. Tags and fused reporters are not part of them. Lines headed by an entry give the natural chain unless they say otherwise; changes in a name come on top.
UniProt Q9UKV0: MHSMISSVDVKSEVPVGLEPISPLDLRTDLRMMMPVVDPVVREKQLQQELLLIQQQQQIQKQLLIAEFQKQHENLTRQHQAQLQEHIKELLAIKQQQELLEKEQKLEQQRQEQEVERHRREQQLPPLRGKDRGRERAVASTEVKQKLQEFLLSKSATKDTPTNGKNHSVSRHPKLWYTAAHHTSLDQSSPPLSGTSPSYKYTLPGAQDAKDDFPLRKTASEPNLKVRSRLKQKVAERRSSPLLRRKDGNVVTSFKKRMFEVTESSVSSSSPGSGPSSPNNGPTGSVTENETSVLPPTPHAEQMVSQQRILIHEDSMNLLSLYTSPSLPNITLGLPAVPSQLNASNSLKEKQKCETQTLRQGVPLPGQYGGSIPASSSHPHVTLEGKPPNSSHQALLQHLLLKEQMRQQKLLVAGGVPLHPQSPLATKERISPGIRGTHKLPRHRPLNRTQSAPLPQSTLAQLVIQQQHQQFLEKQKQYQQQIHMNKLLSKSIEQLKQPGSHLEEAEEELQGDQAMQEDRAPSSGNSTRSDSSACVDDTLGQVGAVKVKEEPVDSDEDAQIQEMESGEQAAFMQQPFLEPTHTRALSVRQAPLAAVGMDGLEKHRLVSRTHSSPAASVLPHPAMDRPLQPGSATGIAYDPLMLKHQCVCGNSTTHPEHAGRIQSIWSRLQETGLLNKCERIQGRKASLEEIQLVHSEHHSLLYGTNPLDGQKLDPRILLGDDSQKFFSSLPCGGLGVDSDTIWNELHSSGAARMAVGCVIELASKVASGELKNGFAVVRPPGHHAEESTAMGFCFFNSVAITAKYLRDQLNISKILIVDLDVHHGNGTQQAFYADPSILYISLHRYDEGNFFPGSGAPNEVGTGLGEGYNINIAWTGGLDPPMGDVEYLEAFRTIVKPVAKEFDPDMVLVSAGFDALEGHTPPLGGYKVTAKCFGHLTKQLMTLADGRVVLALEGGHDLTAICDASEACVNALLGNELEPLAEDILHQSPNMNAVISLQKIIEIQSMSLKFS
UniProt Q9UQL6: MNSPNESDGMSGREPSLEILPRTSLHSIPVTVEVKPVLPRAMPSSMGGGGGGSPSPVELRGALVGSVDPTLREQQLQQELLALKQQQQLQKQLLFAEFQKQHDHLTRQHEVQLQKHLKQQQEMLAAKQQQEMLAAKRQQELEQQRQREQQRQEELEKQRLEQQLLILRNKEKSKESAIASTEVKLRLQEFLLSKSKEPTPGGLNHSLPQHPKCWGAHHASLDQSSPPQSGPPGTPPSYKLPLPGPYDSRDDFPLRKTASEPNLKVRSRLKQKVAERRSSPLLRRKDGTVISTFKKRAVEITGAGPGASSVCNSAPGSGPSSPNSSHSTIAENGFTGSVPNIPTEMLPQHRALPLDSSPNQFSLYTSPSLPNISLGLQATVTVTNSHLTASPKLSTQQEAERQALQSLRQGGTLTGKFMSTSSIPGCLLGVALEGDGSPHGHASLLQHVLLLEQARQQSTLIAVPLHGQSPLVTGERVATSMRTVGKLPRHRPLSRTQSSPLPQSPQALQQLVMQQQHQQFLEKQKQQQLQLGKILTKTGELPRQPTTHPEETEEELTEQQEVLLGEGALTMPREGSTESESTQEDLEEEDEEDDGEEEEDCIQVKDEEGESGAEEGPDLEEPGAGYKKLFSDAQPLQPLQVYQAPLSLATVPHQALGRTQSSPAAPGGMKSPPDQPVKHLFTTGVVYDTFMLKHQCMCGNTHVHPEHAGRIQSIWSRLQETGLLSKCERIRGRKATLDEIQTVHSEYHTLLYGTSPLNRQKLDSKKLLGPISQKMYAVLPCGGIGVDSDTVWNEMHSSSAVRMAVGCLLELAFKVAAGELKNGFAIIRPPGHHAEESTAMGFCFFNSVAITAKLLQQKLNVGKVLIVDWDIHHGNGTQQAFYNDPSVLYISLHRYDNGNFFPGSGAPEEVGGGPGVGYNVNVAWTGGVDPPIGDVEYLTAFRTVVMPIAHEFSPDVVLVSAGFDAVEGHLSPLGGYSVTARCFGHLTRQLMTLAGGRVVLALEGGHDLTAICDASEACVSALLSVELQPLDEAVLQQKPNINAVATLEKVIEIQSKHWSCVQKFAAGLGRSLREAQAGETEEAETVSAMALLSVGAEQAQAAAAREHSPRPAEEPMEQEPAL
UniProt P56524: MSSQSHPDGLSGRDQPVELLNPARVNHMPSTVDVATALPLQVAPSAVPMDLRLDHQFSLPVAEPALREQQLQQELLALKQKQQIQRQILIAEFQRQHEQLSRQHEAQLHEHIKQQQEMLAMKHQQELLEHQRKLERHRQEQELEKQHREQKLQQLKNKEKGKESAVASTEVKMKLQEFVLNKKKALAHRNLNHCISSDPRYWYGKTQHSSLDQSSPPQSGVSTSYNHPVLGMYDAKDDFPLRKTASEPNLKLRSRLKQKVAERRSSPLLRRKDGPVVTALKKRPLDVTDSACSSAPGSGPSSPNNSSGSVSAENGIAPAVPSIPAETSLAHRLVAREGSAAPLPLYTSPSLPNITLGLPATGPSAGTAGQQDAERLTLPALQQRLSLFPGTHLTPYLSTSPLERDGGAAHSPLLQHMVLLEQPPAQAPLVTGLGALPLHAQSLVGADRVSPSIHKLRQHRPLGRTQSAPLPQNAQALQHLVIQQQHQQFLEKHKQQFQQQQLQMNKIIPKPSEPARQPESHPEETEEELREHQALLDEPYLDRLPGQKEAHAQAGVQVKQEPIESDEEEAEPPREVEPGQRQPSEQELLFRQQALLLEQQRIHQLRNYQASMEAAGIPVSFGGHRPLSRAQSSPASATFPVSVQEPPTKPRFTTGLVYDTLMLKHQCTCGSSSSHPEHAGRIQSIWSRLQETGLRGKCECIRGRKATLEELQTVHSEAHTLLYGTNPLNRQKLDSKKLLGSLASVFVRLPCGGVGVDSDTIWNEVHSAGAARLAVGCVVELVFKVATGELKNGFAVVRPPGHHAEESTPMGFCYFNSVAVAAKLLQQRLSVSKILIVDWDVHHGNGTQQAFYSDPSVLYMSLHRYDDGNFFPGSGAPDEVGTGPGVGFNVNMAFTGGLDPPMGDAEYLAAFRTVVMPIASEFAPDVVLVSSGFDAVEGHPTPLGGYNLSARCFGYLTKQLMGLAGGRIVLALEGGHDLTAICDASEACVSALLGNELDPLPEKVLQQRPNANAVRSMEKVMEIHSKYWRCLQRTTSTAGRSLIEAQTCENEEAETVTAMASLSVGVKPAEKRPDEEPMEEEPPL
UniProt Q13547, whole entry: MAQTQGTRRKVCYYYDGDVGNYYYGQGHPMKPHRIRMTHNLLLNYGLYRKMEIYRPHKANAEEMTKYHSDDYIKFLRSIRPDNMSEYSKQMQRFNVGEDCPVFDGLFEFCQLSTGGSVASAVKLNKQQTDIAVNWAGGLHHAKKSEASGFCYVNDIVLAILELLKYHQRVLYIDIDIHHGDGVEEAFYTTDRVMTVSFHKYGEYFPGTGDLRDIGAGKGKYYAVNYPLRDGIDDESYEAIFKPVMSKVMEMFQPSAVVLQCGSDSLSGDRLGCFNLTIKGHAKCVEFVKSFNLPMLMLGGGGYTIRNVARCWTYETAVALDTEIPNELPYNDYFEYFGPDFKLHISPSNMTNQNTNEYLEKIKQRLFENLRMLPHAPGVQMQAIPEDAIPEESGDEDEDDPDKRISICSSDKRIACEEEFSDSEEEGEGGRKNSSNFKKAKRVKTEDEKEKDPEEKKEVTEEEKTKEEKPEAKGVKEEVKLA
UniProt Q92769, whole entry: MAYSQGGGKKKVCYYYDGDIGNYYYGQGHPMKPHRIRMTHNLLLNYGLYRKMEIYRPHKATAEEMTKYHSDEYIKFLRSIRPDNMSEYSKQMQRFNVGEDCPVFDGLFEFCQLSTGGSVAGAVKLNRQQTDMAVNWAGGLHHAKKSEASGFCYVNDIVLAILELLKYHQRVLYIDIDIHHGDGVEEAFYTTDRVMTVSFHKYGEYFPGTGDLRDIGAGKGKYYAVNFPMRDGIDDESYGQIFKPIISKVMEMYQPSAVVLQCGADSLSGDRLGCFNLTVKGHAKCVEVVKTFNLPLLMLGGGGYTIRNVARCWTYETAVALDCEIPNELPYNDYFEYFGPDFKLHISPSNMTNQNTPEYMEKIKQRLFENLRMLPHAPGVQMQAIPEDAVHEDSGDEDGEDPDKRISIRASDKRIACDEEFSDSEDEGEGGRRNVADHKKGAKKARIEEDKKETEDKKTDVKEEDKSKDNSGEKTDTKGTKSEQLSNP

Experiments:
HDAC9 = HDAC9 (Homo sapiens, UniProt Q9UKV0); assay: HDAC inhibition assay, class II A, fluorogenic HDAC Class2a substrate
HDAC5 = HDAC5 (Homo sapiens, UniProt Q9UQL6); assay: as above
HDAC8 = target: T1, HDAC8 (Homo sapiens, UniProt Q9BY41); assay: HDAC inhibition assay, class I, fluorogenic peptide RHK(Ac)K(Ac)AMC; type: biochemical
T1 sequence (Q9BY41 1-377): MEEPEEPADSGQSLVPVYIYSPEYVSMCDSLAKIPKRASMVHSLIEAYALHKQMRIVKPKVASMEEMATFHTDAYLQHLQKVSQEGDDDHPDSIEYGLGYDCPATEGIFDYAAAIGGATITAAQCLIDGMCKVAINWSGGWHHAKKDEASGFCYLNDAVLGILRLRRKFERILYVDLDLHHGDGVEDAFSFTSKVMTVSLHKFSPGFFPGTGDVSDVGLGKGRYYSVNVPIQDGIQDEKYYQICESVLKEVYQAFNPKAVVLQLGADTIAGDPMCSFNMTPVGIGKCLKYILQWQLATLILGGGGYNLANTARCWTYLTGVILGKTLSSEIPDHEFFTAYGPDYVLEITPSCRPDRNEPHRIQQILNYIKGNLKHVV

HDAC4 = HDAC4 (Homo sapiens, UniProt P56524); assay: HDAC inhibition assay, class II A, fluorogenic HDAC Class2a substrate
HDAC1 = HDAC1 (Homo sapiens, UniProt Q13547); assay: HDAC inhibition assay, class I, fluorogenic peptide RHKK(Ac)AMC; type: biochemical
HDAC2 = HDAC2 (Homo sapiens, UniProt Q92769); assay: as above; type: biochemical

%Activity (HDAC9; 1.00E-05 M): −0.05%
%Activity (HDAC9; 1.11E-06 M): 2.96%
%Activity (HDAC9; 1.23E-07 M): 14.71%
%Activity (HDAC9; 1.37E-08 M): 68.95%
%Activity (HDAC9; 1.52E-09 M): 103.85%
%Activity (HDAC9; 3.33E-06 M): 0.58%
%Activity (HDAC9; 3.70E-07 M): 5.79%
%Activity (HDAC9; 4.12E-08 M): 41.39%
%Activity (HDAC9; 4.57E-09 M): 91.40%
%Activity (HDAC9; 5.08E-10 M): 106.05%
HILLSLOPE (HDAC9; curve fit): −1.036
%Activity (HDAC5; 1.00E-05 M): 2.95%
%Activity (HDAC5; 1.11E-06 M): 17.13%
%Activity (HDAC5; 1.23E-07 M): 73.56%
%Activity (HDAC5; 1.37E-08 M): 101.76%
%Activity (HDAC5; 1.52E-09 M): 105.35%
%Activity (HDAC5; 3.33E-06 M): 4.93%
%Activity (HDAC5; 3.70E-07 M): 44.58%
%Activity (HDAC5; 4.12E-08 M): 91.82%
%Activity (HDAC5; 4.57E-09 M): 106.69%
%Activity (HDAC5; 5.08E-10 M): 112.07%
HILLSLOPE (HDAC5; curve fit): −1.023
SMILES: O=C(NCC1(c2nc(-c3ccccc3)cs2)CCOCC1)c1cccc(-c2noc(C(F)(F)F)n2)c1 [TMP269]

%Activity (HDAC8; 1.00E-05 M): 1.00%
%Activity (HDAC8; 1.11E-06 M): 39.71%
%Activity (HDAC8; 1.23E-07 M): 25.34%
%Activity (HDAC8; 1.37E-08 M): 113.46%
%Activity (HDAC8; 1.52E-09 M): 106.69%
%Activity (HDAC8; 3.33E-06 M): 18.40%
%Activity (HDAC8; 3.70E-07 M): 55.93%
%Activity (HDAC8; 4.12E-08 M): 106.11%
%Activity (HDAC8; 4.57E-09 M): 100.99%
%Activity (HDAC8; 5.08E-10 M): 97.81%
%Activity (HDAC4; 1.00E-05 M): 38.73%
%Activity (HDAC4; 1.11E-06 M): 96.69%
%Activity (HDAC4; 1.23E-07 M): 104.67%
%Activity (HDAC4; 1.37E-08 M): 103.45%
%Activity (HDAC4; 1.52E-09 M): 114.32%
%Activity (HDAC4; 3.33E-06 M): 66.93%
%Activity (HDAC4; 4.12E-08 M): 107.27%
%Activity (HDAC4; 4.57E-09 M): 111.57%
%Activity (HDAC4; 5.08E-10 M): 111.20%
%Activity (HDAC1; 1.00E-05 M): −1.79%
%Activity (HDAC1; 1.11E-06 M): 9.76%
%Activity (HDAC1; 1.23E-07 M): 13.39%
%Activity (HDAC1; 1.37E-08 M): 57.30%
%Activity (HDAC1; 1.52E-09 M): 89.46%
%Activity (HDAC1; 3.33E-06 M): −0.77%
%Activity (HDAC1; 3.70E-07 M): 4.96%
%Activity (HDAC1; 4.12E-08 M): 33.43%
%Activity (HDAC1; 4.57E-09 M): 75.41%
%Activity (HDAC1; 5.08E-10 M): 94.78%
HILLSLOPE (HDAC1; curve fit): −0.8597
%Activity (HDAC2; 1.00E-05 M): −3.68%
%Activity (HDAC2; 1.11E-06 M): 0.92%
%Activity (HDAC2; 1.23E-07 M): 27.55%
%Activity (HDAC2; 1.37E-08 M): 70.86%
%Activity (HDAC2; 1.52E-09 M): 94.80%
%Activity (HDAC2; 3.33E-06 M): −2.06%
%Activity (HDAC2; 3.70E-07 M): 7.43%
%Activity (HDAC2; 4.12E-08 M): 41.34%
%Activity (HDAC2; 4.57E-09 M): 78.05%
%Activity (HDAC2; 5.08E-10 M): 84.26%
HILLSLOPE (HDAC2; curve fit): -1.029
SMILES: CC(/C=C/C(=O)NO)=C\[C@@H](C)C(=O)c1ccc(N(C)C)cc1 [Trichostatin A]
